From US20190300576A1 (MIT, published 2019)

Sequences of proteins named here, by UniProt entry; tags and fusion partners are left off. A change or cut given only in a name is not applied to a line headed by its entry. Residues count along the entry.
UniProt Q00987, 25-109: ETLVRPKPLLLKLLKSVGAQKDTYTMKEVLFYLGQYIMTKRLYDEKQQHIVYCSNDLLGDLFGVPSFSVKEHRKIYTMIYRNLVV
UniProt P00760, 24-246: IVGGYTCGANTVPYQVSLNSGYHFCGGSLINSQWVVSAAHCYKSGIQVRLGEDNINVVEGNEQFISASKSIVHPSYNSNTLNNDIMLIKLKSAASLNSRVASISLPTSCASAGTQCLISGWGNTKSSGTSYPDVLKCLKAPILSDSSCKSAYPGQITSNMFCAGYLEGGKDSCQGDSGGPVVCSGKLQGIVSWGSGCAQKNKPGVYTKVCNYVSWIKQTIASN
UniProt P12071: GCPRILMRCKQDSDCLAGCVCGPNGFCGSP

T1: Human ^1-137MDMX (human, UniProt O15151 1-137)
T1 construct: range 1-137; Bought protein
T1 sequence (looked up): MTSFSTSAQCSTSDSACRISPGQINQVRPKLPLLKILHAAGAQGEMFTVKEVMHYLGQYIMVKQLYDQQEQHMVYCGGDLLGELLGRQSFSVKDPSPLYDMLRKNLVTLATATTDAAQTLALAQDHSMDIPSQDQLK


Key:
Human ^1-137MDMX = molecular target: T1, Human ^1-137MDMX; assay: BLI, peptide on streptavidin sensors, global fit
SUMO-^25-109MDM2 [1] = molecular target: T2, SUMO-^25-109MDM2 (UniProt Q00987 25-109); assay: BLI, peptide on streptavidin sensors, global fit
T2 construct: range 25-109; Expressed in Rosetta (DE3) pLysS cells, MW=23 297 Da, used with the SUMO tag on; not shown: SUMO fusion tag (protein purified on Ni-NTA)

SUMO-^25-109MDM2 [2] = molecular target: T2, SUMO-^25-109MDM2; assay: BLI, biotinylated peptide immobilized
SUMO-^25-109MDM2 [3] = molecular target: T2, SUMO-^25-109MDM2; assay: BLI, biotinylated peptide immobilized; remark: listed apart in the source
[4] = molecular target: Trypsin from bovine pancreas (bovine, UniProt P00760 24-246); assay: Trypsin inhibition assay (legend paragraph 120, which names the trypsin binders '59 and 60')
SUMO-^25-109MDM2 [5] = molecular target: T2, SUMO-^25-109MDM2; assay: BLI, determined for 60 using biotinylated 60a

Binder | Kd (SUMO-^25-109MDM2 [1]) [nM] | other results
LTFEHYWAQLTSK (as printed LT(F2f)EHYWAQ(Cba)TSK; N-terminal biotin label; C-terminal amide) [peptide 11a] | – | Kd (Human ^1-137MDMX): 33 nM
LTFQHFWAELTSK (N-terminal biotinylation; C-terminal amide) [peptide 1a] | 45 | –
LTFEHYFAQLTSK (as printed LT(F2f)EHY(Napa)AQ(Cba)TSK; N-terminal biotin label; C-terminal amide) [peptide 27a] | 23 | Kd (SUMO-^25-109MDM2 [2]): 24 nM
LTFPHYWAELTSK (N-terminal biotinylation; C-terminal amide) [peptide 3a] | 86 | –
LTFEHYLAQFTSK (as printed LT(F3f)EHY(Hexa)AQ(F3f)TSK; N-terminal biotin label; C-terminal amide) [peptide 23a] | 15 | –
LTFEHYFAQFTSK (as printed LT(F2f)EHY(Napa)AQ(Ff)TSK; N-terminal biotin label; C-terminal amide) [peptide 28a] | 96 | Kd (SUMO-^25-109MDM2 [2]): 83 nM
LTFEHYLAQLTSK (as printed LT(F2f)EHY(Hexa)AQ(Cba)TSK; N-terminal biotin label; C-terminal amide) [peptide 10a] | – | Kd (Human ^1-137MDMX): 26 nM
LTFEHYLAQFTSK (as printed LT(F2f)EHY(Hexa)AQ(Homof)TSK; N-terminal biotin label; C-terminal amide) [peptide 21a] | 8.9 | –
LTFQHYWAELTSK (N-terminal biotinylation; C-terminal amide) [peptide 2a] | 59 | Kd (SUMO-^25-109MDM2 [3]): 62 nM
LTFEHYLAQFTSK (as printed LT(F3f)EHY(Hexa)AQ(Ff)TSK; N-terminal biotin label; C-terminal amide) [peptide 14a] | 3.2 | –
LTFEHYLAQFTSK (as printed LT(F3f)EHY(Hexa)AQ(F5f)TSK; N-terminal biotin label; C-terminal amide) [peptide 24a] | 16 | –
LTFEHYLAQFTSK (as printed LT(F2f)EHY(Hexa)AQ(F3f)TSK; N-terminal biotin label; C-terminal amide) [peptide 18a] | 7.6 | –
LTFEHYWAQFTSK (as printed LT(F2f)EHYWAQ(F3f)TSK; N-terminal biotin label; C-terminal amide) [peptide 26a] | 23 | –
LTFEHYLAQFTSK (as printed LT(F2f)EHY(Hexa)AQ(Ff)TSK; N-terminal biotin label; C-terminal amide) [peptide 15a] | 3.8 | –
LTFEHYWAQFTSK (N-terminal biotin label; C-terminal amide) [peptide 5a] | 39 | Kd (SUMO-^25-109MDM2 [3]): 36 nM
GCPRILMRCKQDSDCLAGCVCGPNGFCG (peptide, UniProt P12071 1-28, looked up, oxidatively folded (disulfide bridges); C-terminal amide, also called EETI-II knottin) [EETI-II (58)] | – | Kd [4]: 1.2 nM
LTFCHYWAQLCSK (the two cysteines joined by perfluorosulfone macrocyclization; C-terminal amide, Obtained by perfluorosulfone macrocyclization of pDI-cysteine peptide; no label; also called PDI-Sulfone peptide) [pDI-Sulfone (60)] | – | Kd (SUMO-^25-109MDM2 [5]): 22 nM
